In PubChem BioAssay AID1645860 (Buhrlage Lab, Dana-Farber Cancer Institute and Novartis …, 2021):
This is a selection; strong and weak results do not stand in their true shares. The source made the active and inactive calls. No stated cut-off is given here; in the data, active means inhibition above about 30%; inactive means the rest.

Protein sequences, listed by entry. Tags and fused reporters are not part of them.
UniProt Q70CQ3, whole entry: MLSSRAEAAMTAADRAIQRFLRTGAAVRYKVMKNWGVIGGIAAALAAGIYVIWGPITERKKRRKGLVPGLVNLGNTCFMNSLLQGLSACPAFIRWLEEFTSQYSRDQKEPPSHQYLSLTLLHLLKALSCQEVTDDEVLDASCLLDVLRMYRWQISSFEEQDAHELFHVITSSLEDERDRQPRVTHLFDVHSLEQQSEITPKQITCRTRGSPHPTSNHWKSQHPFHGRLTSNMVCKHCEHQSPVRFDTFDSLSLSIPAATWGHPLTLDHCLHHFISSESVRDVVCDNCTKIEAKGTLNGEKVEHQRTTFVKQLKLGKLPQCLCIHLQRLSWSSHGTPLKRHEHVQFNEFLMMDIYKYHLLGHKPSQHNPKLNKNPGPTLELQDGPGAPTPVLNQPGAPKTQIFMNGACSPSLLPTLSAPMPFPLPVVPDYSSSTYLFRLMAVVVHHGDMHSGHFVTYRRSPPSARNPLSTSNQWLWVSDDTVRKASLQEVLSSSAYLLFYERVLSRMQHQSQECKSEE

target: Ubiquitin carboxyl-terminal hydrolase 30 (Homo sapiens) (UniProt Q70CQ3); assay: inhibitors of human USP30 deubiquitinase (AID 1645860); conditions: purified USP30, Ub-rhodamine cleavage fluorescence; at 25 µM; active compounds read high

Q: For O=C(NCC1(N2CCCCC2)CCCCC1)c1ccc(F)cc1, which inhibition is on record?
A: Its inhibition is inactive: -170%.

Q: CC1CN(CCc2ccccc2)CCC1=O (stereo not drawn) was tested. Which inhibition did it give?
A: The inhibition was inactive: 11.9%.

Q: With O=C(NCC1(N2CCCCC2)CCCCC1)c1ccc2ncsc2c1 as the compound, how does the inhibition read?
A: Its inhibition is inactive: -22.6%.

Q: Cc1ccccc1C(=O)NCC1(N2CCOCC2)CCCCC1 was tested. Which inhibition did it give?
A: The inhibition was inactive: -1.84%.

Q: Cc1cc(C(=O)NCC2(N3CCOCC3)CCCCC2)c2ccccc2n1 was tested. Which inhibition did it give?
A: Its inhibition is inactive: 3.16%.

Q: How did the inhibition turn out when O=C(NCC1(N2CCOCC2)CCCCC1)c1ccccc1Cl was run?
A: The inhibition was inactive: -7.14%.

Q: N#Cc1ccc(C(=O)NCC2(N3CCCCC3)CCCCC2)cc1 was tested. Which inhibition did it give?
A: The inhibition was inactive: -15.2%.

Q: For CN(C)c1ccc(C(=O)NCC2(N3CCCCC3)CCCCC2)cc1, which inhibition is on record?
A: Its inhibition is inactive: 0.0678%.
